Measured values reported in patent US20130143840A1, “HEPARAN SULFATE REPLACEMENT THERAPY” (priority 2010, published 2013).

Tested on: isolated BALB/c islet beta cells
Test: Culture-induced death of isolated islet beta cells, Sytox green uptake by flow cytometry
Format: cell-based, mouse
Conditions: 50 μg/ml, 2 days culture, untreated control 25-30% viability
Source text: Pancreatic islets were isolated from non-diabetic BALB/c mice and dissociated into a single cell suspension (>90% beta cells) by Dispase digestion. Following 2 days culture in standard tissue culture medium 62% of the beta cells were dead, based on uptake of the fluorescent DNA binding dye, Sytox green (FIG. 4, upper panels). […] In the presence of heparin the highly viable Calcein^+, PI^−population of beta cells was increased from 25% to 86%, the dead population. (Calcein^−, PI^+) reduced from 18% to 1% and the apoptotic population (Calcein^+, PI^+) improved from 52% to 6%. […] Table 1 provides a statistical analysis of the data showing that heparin, highly sulfated heparan sulfate (HS^hi) and PI-88 can protect mouse beta cells from culture-induced cell death.
The impact of heparin treatment on beta cell viability was also independent of the source of heparin (FIG. 8a) and, based on viable cell numbers, was not observed after 1 h but did occur after continuous culture with heparin for 1-2 days (FIG. 8b).

Bis-lactobionic acid amide (C12 link) was tested, and the “Viability (%)” value was 64%.
